From patent US20030186334A1, “KTS-disintegrins” (Temple University - Of the Commonwealth System of Higher …, priority 2001, published 2003)

By UniProt entry, the sequences of proteins in these tests, tags left out. Residues count along the entry.
UniProt P56199, 29-1179: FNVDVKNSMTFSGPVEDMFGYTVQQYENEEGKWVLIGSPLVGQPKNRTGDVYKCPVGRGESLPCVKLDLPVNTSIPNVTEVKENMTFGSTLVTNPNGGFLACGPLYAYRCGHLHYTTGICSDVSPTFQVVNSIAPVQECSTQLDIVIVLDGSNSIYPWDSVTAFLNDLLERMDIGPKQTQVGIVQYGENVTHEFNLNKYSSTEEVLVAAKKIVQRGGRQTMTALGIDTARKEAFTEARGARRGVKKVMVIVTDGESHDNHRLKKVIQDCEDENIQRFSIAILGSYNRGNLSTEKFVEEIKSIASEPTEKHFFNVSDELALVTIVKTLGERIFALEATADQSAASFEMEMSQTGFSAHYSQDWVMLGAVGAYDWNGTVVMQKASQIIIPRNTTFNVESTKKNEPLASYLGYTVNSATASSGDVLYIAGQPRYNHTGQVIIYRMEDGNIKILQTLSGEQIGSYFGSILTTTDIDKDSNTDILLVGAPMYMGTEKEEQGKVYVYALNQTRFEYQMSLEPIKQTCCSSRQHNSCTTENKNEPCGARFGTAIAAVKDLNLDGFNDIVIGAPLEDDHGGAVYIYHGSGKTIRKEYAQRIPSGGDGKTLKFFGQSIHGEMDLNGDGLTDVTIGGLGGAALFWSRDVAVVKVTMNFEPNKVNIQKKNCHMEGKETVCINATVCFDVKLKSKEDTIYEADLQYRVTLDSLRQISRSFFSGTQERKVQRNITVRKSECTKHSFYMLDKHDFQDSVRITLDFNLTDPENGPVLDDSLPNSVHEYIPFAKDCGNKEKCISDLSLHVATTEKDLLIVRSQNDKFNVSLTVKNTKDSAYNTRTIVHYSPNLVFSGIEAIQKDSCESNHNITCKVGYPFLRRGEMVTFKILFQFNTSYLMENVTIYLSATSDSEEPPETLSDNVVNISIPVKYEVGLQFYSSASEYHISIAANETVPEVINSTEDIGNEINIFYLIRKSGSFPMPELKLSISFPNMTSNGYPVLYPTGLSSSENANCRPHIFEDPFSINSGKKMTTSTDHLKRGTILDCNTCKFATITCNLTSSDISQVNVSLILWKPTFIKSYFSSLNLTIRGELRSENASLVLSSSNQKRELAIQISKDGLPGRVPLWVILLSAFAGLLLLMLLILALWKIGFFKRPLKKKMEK

Molecular target: T1, α1β1 integrin (Homo sapiens, UniProt P05556+P56199)
T1 construct: expressed in transfected cells; host or cells: α1K562 cells
Assay: adhesion of α1K562 cells to immobilized collagen IV
Type: cell-based
Procedure: The ability of EP-obtustatin and the synthetic peptides described above to inhibit activity of the α1β1 integrin was then assayed. Collagen IV (0.2 μg/well) in 0.02 M acetic acid was immobilized by incubation overnight at 4° C. on a 96-well plate. Plates were then blocked with 1% (w/v) BSA (bovine serum albumin) in Hank's Balanced Salt Solution (HBSS) containing 3 mM Mg^2+ at room temperature for 1-2 hours to prevent cells from non-specifically binding to the plates. α1K562 cells were labeled by incubation with 12.5 μM 5-chloromethylfluorescein diacetete (CMFDA) in HBSS for 15 minutes at 37° C. CMFDA labeled α1K562 cells were then pelleted, washed and resuspended in HBSS buffer containing 3 mM Mg^2+ and 1% BSA. […] Fluorescent CMFDA released by lysis of adherent cells in a given well was read using a Cytofluor 2350 fluorescence plate reader.
Adhesive ligands for the selected integrins consisted of collagen IV (0.2 μg/well), collagen I, fibronectin, or vascular cell adhesion molecule-1 (VCAM-1). […] Fluorescent CMFDA released by lysis of adherent cells in a given well was read using a Cytofluor 2350 fluorescence plate reader.
The effect of obtustatin, viperisrastatin, echistatin, and eristostatin on the binding of selected integrins to their adhesive ligands was evaluated using the cell adhesion assay described in Example 6. […]

## CC(C)C[C@H](NC(=O)[C@H](CO)NC(=O)[C@@H](N)[C@@H](C)O)C(=O)N[C@H](C(=O)N[C@@H](CO)C(=O)O)[C@@H](C)O [TSLTS]
  IC50: 3.5 mM
